Source: patent publication US20050089524A1, “Compositions and compounds for use as molecular adjuvant for a nicotine vaccine” (priority 2002, published 2005)

Assays:
human umbilical artery = assay: Smooth muscle contraction of human umbilical artery; format: cell-based
Experimental: Pharmacologic assays. […] Statistical analysis of the values obtained from pharmacologic assays was performed using one-way analysis of variance (ANOVA).

C5aR = target: T1, C5aR (Homo sapiens, UniProt P21730); assay: Binding affinity for C5aRs on human PMNs (125I-C5a competition)
T1 construct: endogenous in cells; host or cells: intact human PMNs (polymorphonuclear leukocytes)
T1 sequence (P21730 1-350): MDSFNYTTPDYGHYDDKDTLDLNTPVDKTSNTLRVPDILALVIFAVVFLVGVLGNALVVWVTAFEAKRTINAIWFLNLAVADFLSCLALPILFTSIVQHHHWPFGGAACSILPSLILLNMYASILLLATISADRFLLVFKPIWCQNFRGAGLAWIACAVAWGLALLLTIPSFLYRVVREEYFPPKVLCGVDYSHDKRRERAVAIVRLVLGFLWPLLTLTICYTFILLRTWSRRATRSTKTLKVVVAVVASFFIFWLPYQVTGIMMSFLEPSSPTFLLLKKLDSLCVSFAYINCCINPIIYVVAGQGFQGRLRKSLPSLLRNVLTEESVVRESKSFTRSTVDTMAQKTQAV
Experimental: Pharmacologic assays. C5a-like agonistic activity was assessed by the ability of the peptides to induce smooth muscle contraction of human umbilical artery and […] from human PMNs according to previously published methods (Sanderson et al., 1994, supra; Sanderson et al., J. Med. Chem. 38, 3669, 1995; Finch et al., J. Med. Chem. 40, 877, 1997). Full concentration-response curves were generated for individual peptides and natural C5a in each assay and the EC50 values (the concentration of peptide producing 50% of the maximal response to each peptide) were calculated. pD2 transforms [−log EC50 (M)] were calculated for each concentration-response curve and reported as the mean±SE. Peptide binding affinity to the C5aR was evaluated on intact human PMNs by a competition assay using ^125I-C5a according to previously described methods (Sanderson et al., 1995, supra; Finch et al., 1997, supra). Statistical analysis of the values obtained from pharmacologic assays was performed using one-way analysis of variance (ANOVA).

[1] = test system: 51Cr-labeled P815S (HBsAg transfectant) target cells; assay: HBsAg-specific CTL response of immunized mice (51Cr-release assay); format: in vivo, BALB/c mice; conditions: s.c. in PBS, boost day 21, spleen cells day 42
MUC1 epitope peptide = assay: Serum antibody response to MUC1 epitope in immunized mice (RIA); format: in vivo; conditions: C57Bl6 and Balb/c mice, 100 μg i.p. with RIBI adjuvant, three immunizations, sera at 6 weeks
Excerpt: iii. Animal Models. The strains of mice used for this example were inbred females 6 to 12 week old C57Bl6(H-2^b) and Balb/c (H-2^d), which were obtained from Jackson labs (Bar Harbor, Me.). […] The MUC1 peptide selected for these studies contained a motif that may bind to the H-2K^b molecule of the C57Bl6 mice; therefore, a strain of mouse that lacked this class I molecule binding motif (Balb/c) was also studied to determine the relative contribution of the class I binding motif to the antigen presentation properties of these peptides.
iv. Immunization protocol. Preimmune sera were obtained from mice, which were subsequently immunized intraperitoneally with 100 μg of the indicated peptide with RIBI adjuvant (MPL+TDM+CWS) (Sigma Immunochemicals). Animals were boosted twice at two week intervals using the same injection procedure. Sera were obtained following three immunizations (at 6 weeks).
v. Analysis of serum antibody responses. For radioimmunoassay (RIA), anti-peptide antibodies were determined, before and at different time points after immunization, in 96-well microtiter plates (Dynatech Laboratories, Inc.). […] Anti-peptide antibody titers were determined using serial dilutions of sera. […] After washing, specific radioactivity was recorded in a gamma counter (1272 CliniGamma, LKB). […]

## CSCC[C@H](NC(=O)[C@@H]1CCCN1C(=O)[C@H](CCCCN)NC(=O)[C@H](Cc1ccccc1)NC(=O)[C@H](CO)NC(=O)[C@@H](N)Cc1ccc(O)cc1)C(=O)N1CCC[C@H]1C(=O)N[C@@H](CC(C)C)C(=O)N[C@H](C)C(=O)N[C@@H](CCCNC(=N)N)C(=O)O
Human umbilical artery; concentration resulting in 50% maximum contraction
  EC50: 10 nM
Human umbilical artery; −log EC50 (M), mean ± SE, n 3
  pD2 ± SE: 6.99 ± 0.22
C5aR
  EC50: 2340 nM
  IC50: 2340 nM
[1]; Effector:Target Ratio 6.25:1
  % Specific Lysis: 1%
[1]; Effector:Target Ratio 12.5:1
  % Specific Lysis: 0%
[1]; Effector:Target Ratio 25:1
  % Specific Lysis: 2%
[1]; Effector:Target Ratio 50:1
  % Specific Lysis: 1%
MUC1 epitope peptide
  antibody response to MUC1 epitope (RIA): no appreciable increase in antibody response
